This note sets out measurements from ChEMBL document CHEMBL1136008, “Novel tricyclic poly(ADP-ribose) polymerase-1 inhibitors with potent anticancer chemopotentiating activity: design, synthesis, and X-ray cocrystal structure” (J Med Chem, 2002).

By UniProt entry, the sequences of proteins in these tests, tags left out.
UniProt P09874, whole entry: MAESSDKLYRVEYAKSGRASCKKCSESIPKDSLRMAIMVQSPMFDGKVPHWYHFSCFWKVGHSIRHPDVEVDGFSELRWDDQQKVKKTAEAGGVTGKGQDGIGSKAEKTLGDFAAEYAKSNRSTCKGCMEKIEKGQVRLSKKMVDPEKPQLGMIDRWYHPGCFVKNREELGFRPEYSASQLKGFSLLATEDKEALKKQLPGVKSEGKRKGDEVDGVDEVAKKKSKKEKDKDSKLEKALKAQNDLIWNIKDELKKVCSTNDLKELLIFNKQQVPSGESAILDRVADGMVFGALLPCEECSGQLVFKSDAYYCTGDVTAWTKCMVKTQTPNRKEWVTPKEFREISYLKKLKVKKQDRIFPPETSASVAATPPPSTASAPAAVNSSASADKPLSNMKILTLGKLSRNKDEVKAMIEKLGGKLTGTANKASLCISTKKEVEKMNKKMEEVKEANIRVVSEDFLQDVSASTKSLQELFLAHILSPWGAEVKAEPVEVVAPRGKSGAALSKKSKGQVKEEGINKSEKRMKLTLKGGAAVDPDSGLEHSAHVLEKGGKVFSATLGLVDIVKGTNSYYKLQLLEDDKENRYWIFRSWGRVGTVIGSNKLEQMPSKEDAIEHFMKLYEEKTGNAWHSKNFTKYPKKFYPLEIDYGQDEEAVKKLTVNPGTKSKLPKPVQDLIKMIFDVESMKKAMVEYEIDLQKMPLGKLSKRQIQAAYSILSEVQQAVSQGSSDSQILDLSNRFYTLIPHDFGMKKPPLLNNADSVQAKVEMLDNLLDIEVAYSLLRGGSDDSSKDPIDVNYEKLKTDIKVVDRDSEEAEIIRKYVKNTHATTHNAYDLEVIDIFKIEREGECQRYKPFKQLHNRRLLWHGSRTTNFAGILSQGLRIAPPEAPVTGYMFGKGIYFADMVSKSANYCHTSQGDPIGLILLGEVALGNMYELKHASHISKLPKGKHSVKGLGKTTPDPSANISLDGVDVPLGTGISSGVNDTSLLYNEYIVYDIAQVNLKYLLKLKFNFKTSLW

The test addresses Poly [ADP-ribose] polymerase 1 (Homo sapiens, UniProt P09874).

The Ki is the equilibrium dissociation constant of an inhibitor or competing ligand from its target. A high value points to weaker binding. In turn, `Cn1c(-c2ccccc2)c2c3c(cccc31)C(=O)NCC2` came in with a Ki of 7 nM. Turning to `O=C1NCCc2c(-c3ccccc3Cl)[nH]c3cccc1c23`, affinity was put at a Ki of 8 nM.
